Patent US20250034110A1, “LPAR1 ANTAGONISTS AND USES THEREOF” (Pipeline Therapeutics, Inc., priority 2021, published 2025)

Sequences of proteins named here, by UniProt entry; tags and fusion partners are left off.
UniProt Q92633, whole entry: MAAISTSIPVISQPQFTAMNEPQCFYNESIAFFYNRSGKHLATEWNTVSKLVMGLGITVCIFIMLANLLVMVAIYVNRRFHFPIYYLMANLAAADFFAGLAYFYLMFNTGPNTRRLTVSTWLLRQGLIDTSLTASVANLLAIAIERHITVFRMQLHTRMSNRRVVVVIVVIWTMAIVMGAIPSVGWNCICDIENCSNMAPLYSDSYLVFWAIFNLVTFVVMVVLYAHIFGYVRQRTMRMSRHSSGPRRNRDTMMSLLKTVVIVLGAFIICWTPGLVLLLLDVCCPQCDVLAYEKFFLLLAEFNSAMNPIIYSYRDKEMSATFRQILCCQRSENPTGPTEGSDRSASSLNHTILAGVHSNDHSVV

molecular target: human LPAR1 (Homo sapiens, UniProt Q92633); experiment: In vitro functional assay of lysophosphatidic acid receptor 1 activity (calcium flux); format: cell-based; conditions: read-out: LPAR1 IC50; B103 cells stably expressing human LPAR1; calcium flux (Fluo-4 NW) after lysophosphatidic acid (18:1) at EC80; 100 pM to 10 μM

Compound	IC50
COc1ccc(NC(=O)N(c2ccccc2C(C)C)C2CCN(CC(F)(F)F)CC2)c(OC(F)F)n1	10 to 100 nM
COc1ccc(NC(=O)N(c2ccccc2C(C)C)C2CCN(CCF)CC2)c(OC(F)F)n1	100 to 1000 nM
Cc1cc(OC(F)F)c(NC(=O)N(c2ccccc2C(C)C)C2CCN(C3(C)COC3)CC2)cn1	10 to 100 nM
Cc1cc(OC(F)F)c(NC(=O)N(c2ccccc2C(C)C)C2CCN(C3COC3)CC2)cn1	10 to 100 nM
COc1ccc(NC(=O)N(c2ccccc2C(C)C)C2CCN(C3COC3)CC2)c(OCCF)n1	100 to 1000 nM
COc1ccc(NC(=O)N(c2ccccc2C(C)C)C2CCN(C3COC3)CC2)c(OCC(F)F)n1	100 to 1000 nM
COc1ccc(NC(=O)N(c2ccccc2C(C)C)C2CCN(CC(F)F)CC2)c(OC(F)F)n1	10 to 100 nM
CC(C)c1ccccc1N(C(=O)Nc1cc(F)c(Cl)cc1OCC(F)F)C1CCN(C2COC2)CC1	100 to 1000 nM
CC(C)c1ccccc1N(C(=O)Nc1cc(F)c(F)cc1OC(F)F)C1CCN(C2COC2)CC1	10 to 100 nM
COc1cc(Cl)ncc1NC(=O)N(c1ccccc1C(C)C)C1CCN(C2CCC2)CC1	100 to 1000 nM
COc1cc(Cl)ncc1NC(=O)N(c1ccccc1C(C)C)C1CCN(C2COC2)CC1	10 to 100 nM
Cc1ccc(NC(=O)N(c2ccccc2C(C)C)C2CCN(C3COC3)CC2)c(OCC(F)F)n1	100 to 1000 nM

Only a part of the results on these compounds is given; other tests are left out.
